Yeast mating assay 1: variants of the scFv Ab-14

Target peptide (SARS-CoV-2 spike, HR2 region): PDVDLGDISGINAS

Each scFv is VH, three GGGGS repeats, VL, as in the parent Ab-14, and differs from it in the CDRs of the heavy chain only.
VH: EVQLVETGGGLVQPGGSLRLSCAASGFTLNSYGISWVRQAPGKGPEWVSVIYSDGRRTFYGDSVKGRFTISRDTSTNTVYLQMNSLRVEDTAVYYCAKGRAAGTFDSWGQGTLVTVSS
VL: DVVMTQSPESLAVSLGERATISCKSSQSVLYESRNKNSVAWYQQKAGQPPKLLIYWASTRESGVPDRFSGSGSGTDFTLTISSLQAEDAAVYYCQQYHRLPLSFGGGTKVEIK

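Phage display of a naive human antibody library on the peptide gave the parent. Library AAYL49 holds single substitutions and randomly drawn double and triple substitutions in the CDRs. In AlphaSeq, yeast of one mating type display the scFv and yeast of the other type display the target. The frequency of each diploid, read from paired DNA barcodes, reflects how well the two displayed proteins bind. A regression on co-assayed BCL2-family reference pairs converts the normalised counts of each replicate to an apparent Kd. Mating was done three times.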

Each variant is given by its three heavy chain CDRs, as the data file delimits them; those of the parent are GFTLNSYGIS, VIYSDGRRTFYGDSVK, GRAAGTFDS.
Numbers give log10(Kd / nM), so 0 is 1 nM and 3 is 1 µM. Smaller is tighter.
An entry "n.d." has no value in the source: the pair was not observed among the diploids in that replicate. This suggests poor binding but is not conclusive.
Empty control strains, which show no peptide, gave a signal in 15% of pairings with library AAYL49; the median was 4.06 and 95% of these signals were weaker than 2.83. No background was subtracted. Also given: how often the same scFv was detected with the empty control strains, with their mean in brackets.
For reference, the parent read 0.65 as the reference entry and 4.11 (one replicate of three) as a member of this library.

CDR-H1	CDR-H2	CDR-H3	log10 Kd, replicates	signal with controls
GFELNYYGIS	VIYSDGRRTTYGDSVK	GRAAGTFDS	2.21 2.36 2.73	5/9 (4.18)
GFTLNSYFIS	VIYSDGRRTFVGDSVK	RRAAGTFDS	n.d. n.d. n.d.	1/9 (4.22)
GFTLNSDGIS	VIYSDGRRTFYGDSGK	GRAPGTFDS	n.d. n.d. n.d.	1/9 (3.59)
GFTLNSYGIS	VIYSDGRRTFYDDSVK	GRAAGFFDG	4.07 4.64 4.30	3/9 (3.59)
GFTLNSYGIS	VIYSDGRRTFYGDSVK	GRAYQTFDS	3.02 3.02 2.92	6/9 (4.72)
GFTLNSYGIQ	VIYFDGRRTFYGDSVK	GRAAGVFDS	n.d. n.d. n.d.	2/9 (3.67)
GFTLNRYGIS	RIYSDGRRTFYGDSVK	DRAAGTFDS	n.d. 3.74 n.d.	1/9 (4.40)
GFTKNLYGIS	VIYSDGRRTFYGDSVK	GSAAGTFDS	n.d. n.d. n.d.	0/9
GFTHNSYGIS	VIYSDGRRTFYGDSVK	GRAAGTFDS	4.94 n.d. n.d.	3/9 (4.31)
GFTLGSYGIS	VIYSDGRRTFYGDSVK	GVASGTFDS	1.94 2.03 2.26	3/9 (3.52)
GFTLNSYGIS	VIYSDGEATFYGDSVK	GRIAGTFDS	n.d. 2.56 2.97	0/9
GFTLNSYDIS	VIYSFGDRTFYGDSVK	GRAAGTFDS	n.d. n.d. n.d.	1/9 (3.93)
GFTLNSMGIS	VIYSDGRDTFYGDSVK	GRAAGTFDS	n.d. n.d. n.d.	5/9 (4.25)
GFTLNSYGIS	VRYSMGRRTFYGDSVK	GRAAGTHDS	n.d. n.d. n.d.	0/9
GFTFNSYGIS	VIYSDNRRTFTGDSVK	GRAAGTFDS	n.d. 3.23 n.d.	2/9 (3.81)
GFTLNSYGIV	VIYSDGRRTFEGDSVK	GRAAGTFDS	n.d. n.d. n.d.	1/9 (3.09)
GFTLNSYGIS	VIEPDGRRTFYGDSVK	GRAAGTHDS	n.d. 3.90 n.d.	3/9 (3.86)
GFTLNEYGIS	VIYSDGYRTFYGDSVK	GRAAGTFDS	-0.10 0.45 0.05	1/9 (4.46)
GFTLNSYGDS	VIYSDGRRTMYGDSVK	GRAAHTFDS	5.16 3.43 6.19	4/9 (4.46)
GFTLKSFGIS	VIYSDGRRTFYGDSVK	GRAAGTFIS	n.d. n.d. n.d.	0/9
GFTLNSYLIS	VIYSDGRRTFYGWSVK	GRAAGTFDS	n.d. n.d. n.d.	0/9
GFTANSYGIS	VIYSDGRILFYGDSVK	GRAAGTFDS	n.d. n.d. n.d.	0/9
GFTLNSYGIS	VIYSDGYRTFYGDSVK	GRYHGTFDS	4.81 4.41 4.57	6/9 (4.20)
GFTLNSYGIS	VIYRDGRRTFYGDSVK	GRAAGVFDW	n.d. n.d. n.d.	1/9 (3.93)
GFTLNSYGIS	VIYSDGRRTFYGDSRK	ALAAGTFDS	n.d. 4.91 3.12	0/9
GFTLNSYGIS	VIYSDGRPTFYGDSVK	GRAAGTFLS	3.83 5.79 5.60	6/9 (4.01)
GFTLNSYGIS	VIYSDGRRTFYGDSLK	GYAAGCFDS	n.d. n.d. n.d.	0/9
GFTLNSKGIS	VIYSQHRRTFYGDSVK	GRAAGTFDS	n.d. n.d. n.d.	4/9 (4.45)
GFTLNSYGIS	NIYSDGRRTFYGDSVK	GRFAGTFDC	n.d. n.d. n.d.	1/9 (5.23)
GFTLNSYGIS	VIEPDGRRTFYGDSVK	GRAAQTFDS	n.d. n.d. 4.46	2/9 (3.46)
GFTLNSKGIS	VIYSDGRRTFYGDSVK	NRAAGTFDS	n.d. 3.72 3.67	1/9 (3.33)
GFTLNSYGIS	VIYFDGRRTFYGDSVK	GRAAWTFDS	n.d. n.d. n.d.	1/9 (3.79)
GKTLNSYGIS	VIYSDGRRKFYGDSVK	GRAAGTCDS	n.d. n.d. n.d.	1/9 (3.12)
GFTLNSYGHS	VIYSDGRRTFYGDSVM	GRMAGTFDS	5.35 n.d. n.d.	2/9 (4.53)
GFTLNSYGIS	VIYSDGRRHFFGDSVK	GRAAGTFSS	6.02 3.40 n.d.	4/9 (4.80)
GFTLNSYGIS	VIYSDERRTFMGDSVK	GFAAGTFDS	n.d. n.d. n.d.	0/9
GFTLNSYAIS	VIYSDGRRTFYGDSVK	GRAAGTFDS	n.d. n.d. n.d.	0/9

Reference: Engelhart et al. 2022, doi:10.1038/s41597-022-01779-4. File: FLAb, binding data.